Data: patent US7193044

Key:
[1] = test system: Mutant BAD S155A, full-length, in vitro translated, 35S-methionine labelled

Substance: PKA (cAMP-dependent protein kinase), catalytic subunit from bovine heart
- PKA catalyzed 32P-ATP incorporation, reduction compared to the wild-type BAD substrate (GST-BAD S155A): A single S155A mutation reduced PKA catalyzed 32P-ATP incorporation by more than 90%, compared to the wild-type mammalian BAD substrate
- gel-mobility shift after incubation with PKA and ATP [1]: but not mutant S155A BAD
